# Measurements published in patent publication US20040166058A1, “Ethylenedicysteine (EC)-drug conjugates, compositions and methods for tissue specific disease imaging” (Board of Regents, The University of Texas System, priority 2002, published 2004).
# System: DiFi cells
# Experiment: Cell viability (MTT) assay in DiFi cells
# Type: cell-based
# Details: compared with untreated control cells
# Method: Briefly, DiFi cells are known to undergo apoptosis when they are exposed to C225 in cell culture. Cells were seeded onto 24-well culture plates. Cell viability was assayed by adding 50 ul of 10 mg/ml MTT (3-[4,5-dimethylthiazol-2-yl]-2,5-diphenyltetrazolium bromide) (Sigma) into 0.5 ml of culture medium and the cells were incubated for 3 h at a 37° C. in a CO2 incubator, followed by cell lysis with buffer containing 20% SDS in dimethyl formamide/H2O, pH 4.7, at 37° C. for more than 6 h. Cell viability was then determined by measuring the optical absorbance of cell lysate at a wavelength of 595 nm and normalizing the value with the corresponding untreated cells.
substance,measurement,value
EC-C225,Cell viability / cell proliferation,biologically active in inducing cell death
